Experimental data taken from the NIST ThermoML archive (doi:10.1016/j.jct.2011.02.012).

Assay: activity coefficient (dimensionless); of the first substance listed, at infinite dilution; xn = mol fraction of the nth substance listed
Settings: Liquid, Chromatography, x1 = 0

CCCCOCCCC [dibutyl ether] + CCn1cc[n+](C)c1.N#C[B-](C#N)(C#N)C#N
Settings | activity coefficient
298.15 K | 20.6 ± 1.4
308.15 K | 19.2 ± 1.3
318.15 K | 18.4 ± 1.3
328.15 K | 17.2 ± 1.2
338.15 K | 16.4 ± 1.1
348.15 K | 15.7 ± 1.1
358.15 K | 14.9 ± 1

Numbers after ± are expanded uncertainties.
